{"source": "paper PMC6804466", "about": "(Acta Pharmaceutica Sinica. B, 2019)", "tested_on": "hOAT1-HEK293 cells", "assay": "Cytotoxicity of Imp, CCK-8 assay, hOAT1-HEK293 cells", "assay_type": "cell-based, human", "conditions": "Imp 1 mmol/L plus the named inhibitor 200 μmol/L, 24 h", "data": [{"smiles": "CCCN(CCC)S(=O)(=O)c1ccc(C(=O)O)cc1", "note": "[Prb, probenecid]", "values": [{"measurement": "Survival rate of hOAT1-HEK293 cells with Imp in the presence of Cil or Prb", "result": 55.4, "unit": "%"}]}]}
